Reference: patent US20050004038A1, “Bivalent inhibitors of Glutathione-S-Transferases” (priority 2003, published 2005)

Protein sequences, listed by entry. Tags and fused reporters are not part of them. Residues count along the entry.
UniProt P08263, whole entry: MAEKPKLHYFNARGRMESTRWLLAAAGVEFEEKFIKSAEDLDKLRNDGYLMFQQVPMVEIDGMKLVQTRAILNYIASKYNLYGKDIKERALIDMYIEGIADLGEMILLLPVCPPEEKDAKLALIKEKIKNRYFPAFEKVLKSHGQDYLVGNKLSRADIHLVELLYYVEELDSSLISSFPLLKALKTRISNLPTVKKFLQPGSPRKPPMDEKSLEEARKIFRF
UniProt P09211, 2-210 limits assumed: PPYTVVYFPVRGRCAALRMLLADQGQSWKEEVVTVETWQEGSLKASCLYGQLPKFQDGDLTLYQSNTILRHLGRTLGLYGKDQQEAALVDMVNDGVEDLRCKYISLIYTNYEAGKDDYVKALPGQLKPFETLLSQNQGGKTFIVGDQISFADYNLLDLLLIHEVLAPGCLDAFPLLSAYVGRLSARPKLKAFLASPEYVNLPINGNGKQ

How the values were obtained:
[1] = molecular target: human glutathione S-transferase A1-1 (GSTA1-1) (Homo sapiens, UniProt P08263); assay: CDNB assay of GST activity and inhibition, GST A1-1; conditions: read-out: IC50 GSTA1-1, second value of the cell GSTP1-1/GSTA1-1, 20 nM GST
[2] = molecular target: human glutathione S-transferase P1-1 (GSTP1-1) (Homo sapiens, UniProt P09211); assay: CDNB assay of GST activity and inhibition, GST P1-1; conditions: read-out: IC50 GSTP1-1, first value of the cell GSTP1-1/GSTA1-1, 20 nM GST

- IC50 [1]: 13.6 µM
- IC50 [2]: 12.5 µM
SMILES: C=C(CC)C(=O)c1ccc(OCC(=O)NCCCC(=O)NCc2cccc(C(N)=O)c2)c(Cl)c1Cl
